Measurements reported in ChEMBL document CHEMBL1152610, “3- and 6-Substituted 2-amino-4,5,6,7-tetrahydrothieno[2,3-c]pyridines as A1 adenosine receptor allosteric modulators and antagonists” (Bioorg Med Chem, 2009).

The chains behind the UniProt entries cited, without tags or fusion partners.
UniProt P30542, whole entry: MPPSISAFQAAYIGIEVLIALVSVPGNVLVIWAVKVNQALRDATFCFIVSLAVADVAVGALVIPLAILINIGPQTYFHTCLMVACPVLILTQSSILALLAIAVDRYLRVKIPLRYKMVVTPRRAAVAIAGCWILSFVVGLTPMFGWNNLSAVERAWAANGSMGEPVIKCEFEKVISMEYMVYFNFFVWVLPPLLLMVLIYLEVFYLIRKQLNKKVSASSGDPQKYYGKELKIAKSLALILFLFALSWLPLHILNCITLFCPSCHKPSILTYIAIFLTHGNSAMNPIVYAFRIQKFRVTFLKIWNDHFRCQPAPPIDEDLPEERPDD

Experiments:
Type in all cases: functional, cell-based
[1] = target: T1, Adenosine receptor A1 (Homo sapiens, UniProt P30542); assay: Agonist activity at human adenosine A1 receptor expressed in CHOk1 cells assessed as potentiation of R-PIA-induced ERK1/2 phosphorylation at 3 uM
How it was run: (§1)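 FlpIn-CHO cells stably expressing human A1AR were seeded at 50,000/well and kept in serum-free DMEM/20 mM HEPES for at least 4 h. They were pretreated for 30 min with 1 U/mL adenosine deaminase, then for 30 min at 37 °C with compound at 3 or 10 μM.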

[2] = target: T1, Adenosine receptor A1; assay: Agonist activity at human adenosine A1 receptor expressed in CHOk1 cells assessed as induction of ERK1/2 phosphorylation at 10 uM relative to R-PIA; how it was run: as §1
[3] = target: T1, Adenosine receptor A1; assay: Agonist activity at human adenosine A1 receptor expressed in CHOk1 cells assessed as potentiation of R-PIA-induced ERK1/2 phosphorylation at 10 uM; how it was run: as §1

Activity [1]: Active
Activity [2]: 40%
Activity [3]: Active
Structure (SMILES): Cc1sc(N)c(C(=O)c2cccc(C(F)(F)F)c2)c1C

Activity calls are given as the source filed them. No cut-off for these calls is given here.
